Laboratory results as given in patent US12582669B2, “Composition controlling pharmacokinetics in the body” (KAWASAKI INSTITUTE OF INDUSTRIAL PROMOTION, priority 2018, dated 2026).
Where two headings read alike, the source gives them in different places.

Columns and labels:
[1] = mouse, in vivo
[2] = mouse, in vivo; remark: listed apart in the source

branched poly(ethylene glycol)-b-poly(L-lysine) [PEGasus-PLL]
amount of mRNA accumulated in the heart [1]: significantly increased | amount of mRNA accumulated in the lungs [1]: significantly increased | amount of mRNA accumulated in the spleen [1]: significantly increased | amount of mRNA accumulated in the kidneys ([1]; iv): ≤ 4% | amount of mRNA accumulated in the heart [2]: significantly increased | improvement of the amount of mRNA delivered to the brain versus micelles alone [2]: ≥ 5 times | amount of mRNA accumulated in the kidneys ([2]; ip): about 5% | amount of mRNA accumulated in the liver ([2]; ip): ~10%
